Two compounds from ChEMBL document CHEMBL3301361, “Experimental in vitro DMPK and physicochemical data on a set of publicly disclosed compounds” can be followed below.

Data set [1] can be described thus: in vitro. To be noted: SD, HW or BN, rat, plasma.
Data set [2] in a line: in vitro. To be noted: human, plasma, PPB.

Turning to `O=P1(N(CCCl)CCCl)NCCCO1` (stereo not drawn) [CYCLOPHOSPHAMIDE ANHYDROUS], the fraction unbound (as a rule, the share of the substance not bound to proteins or other matrix) at 5 h in data set [1] is 0.858.
As for `CN(C)CCC=C1c2ccccc2COc2ccccc21` [DOXEPIN], the fraction unbound at 5 h in data set [2] was 0.236; in data set [1], 0.204.
